The chains behind the UniProt entries cited, without tags or fusion partners.
UniProt P08588, whole entry: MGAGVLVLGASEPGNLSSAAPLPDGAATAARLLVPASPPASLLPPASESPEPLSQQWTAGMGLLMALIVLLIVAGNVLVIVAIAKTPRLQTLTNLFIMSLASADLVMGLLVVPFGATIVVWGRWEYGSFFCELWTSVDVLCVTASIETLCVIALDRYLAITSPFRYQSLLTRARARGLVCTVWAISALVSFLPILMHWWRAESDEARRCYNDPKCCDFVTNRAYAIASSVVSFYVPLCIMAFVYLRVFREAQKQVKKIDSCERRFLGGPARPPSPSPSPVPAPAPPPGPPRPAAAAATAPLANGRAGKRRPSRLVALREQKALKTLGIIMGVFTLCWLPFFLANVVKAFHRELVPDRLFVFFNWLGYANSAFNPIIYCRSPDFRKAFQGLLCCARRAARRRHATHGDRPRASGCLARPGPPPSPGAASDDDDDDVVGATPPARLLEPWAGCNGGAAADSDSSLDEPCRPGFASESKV

According to ChEMBL document CHEMBL1828559, “Synthesis and characterization of high-affinity 4,4-difluoro-4-bora-3a,4a-diaza-s-indacene-labeled fluorescent ligands for human β-adrenoceptors” (J Med Chem, 2011):

Target: Beta-1 adrenergic receptor (Homo sapiens, UniProt P08588)
Test: Antagonist activity at human beta-1 adrenergic receptor site 2 expressed in CGP 12177-stimulated CHO-K1 cells assessed as CRE-SPAP level by […]

SMILES: C=CCc1ccccc1OCC(O)CNC(C)C (stereo unspecified) [ALPRENOLOL]
- Kd: 178 nM
